# Test: Degradation kinetic studies (rate of appearance of degradation products vs pH)
# Assay type: physicochemical
substance,measurement,setting,value
daptomycin,appearance half-life for the degradation products,25°C and pH 4.5,6 h
same,appearance half-life for the degradation products,25°C and pH 7.0,63 h

# Reference: patent EP0386951A2, “An improved diluent formulation for daptomycin” (ELI LILLY AND COMPANY, priority 1989, dated 1990)
